{"source": "patent US12662452B2", "about": "“Solid state forms of lucerastat and process for preparation thereof” (ASSIA CHEMICAL INDUSTRIES LTD., priority 2019, dated 2026)", "test": "Exposure of the solid form to 20-80% relative humidity for 7 days at room temperature", "format": "physicochemical", "conditions": "exposed to 20-80% RH for 7 days at room temperature", "data": [{"substance": "Lucerastat: Salicylic acid [Lucerastat: Salicylic acid Form LC-2]", "values": [{"measurement": "deliquescence", "value": "does not deliquesce"}, {"measurement": "polymorphic stability", "value": "polymorphically stable"}]}]}
